Reference: patent US7220764B2, “Sphingosine kinase inhibitors” (The Pennsylvania State University Research Foundation, priority 2002, dated 2007)

Biological target: T1, PI3K
T1 construct: other: human isoform; mean ± SD of triplicate experimen; activity toward PI3K (in words)
Experiment: Kinase selectivity panel: PI3K (lipid kinase)
Format: biochemical
Conditions: human isoform; mean ± SD of triplicate experiments; read-out: PI3K, concentration required to inhibit enzyme activity by 50%
Method: Thus potencies of each inhibitor were determined for human isoforms of ERK2, PI3K and PKCα. SK inhibition data is provided for comparison. Data represent the concentrations required to inhibit enzyme activity by 50%, and are the mean ±SD of triplicate experiments. Results designated as “None” indicate that no inhibition was detected at concentrations up to 60 μM.

In the case of `O=C1/C(=C/c2ccc(O)c(O)c2)Oc2ccccc21` [Compound 5, 2-(3,4-Dihydroxy-benzylidene)-benzofuran-3-one], the IC50 is reported as 6 ± 2 µM.
